scFv variants of Ab-14 (heavy chain) against a SARS-CoV-2 spike peptide

From the AlphaSeq antibody data of Li et al. 2023 (doi:10.1038/s41467-023-39022-2), copy in the FLAb collection.

The target is the same throughout: PDVDLGDISGINAS, from the HR2 region of SARS-CoV-2 spike.

Parent: Ab-14, a human scFv built as VH, a 15-residue (Gly4Ser)3 linker, VL. Only the CDRs of the heavy chain vary.
VH: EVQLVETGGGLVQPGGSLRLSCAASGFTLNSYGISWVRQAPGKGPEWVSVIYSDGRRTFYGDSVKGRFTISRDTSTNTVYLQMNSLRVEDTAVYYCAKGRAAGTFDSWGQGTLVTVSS
VL: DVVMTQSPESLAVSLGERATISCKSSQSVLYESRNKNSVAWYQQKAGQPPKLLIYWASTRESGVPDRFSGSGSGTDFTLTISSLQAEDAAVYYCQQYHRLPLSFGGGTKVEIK

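Designed CDR sequences, proposed from the first random library and measured here. Several design methods are mixed in this list. Affinity was read by AlphaSeq, a pooled yeast mating assay with surface-displayed partners. Mating (16 h, 30 °C) was followed by selection of diploids and sequencing of their barcodes. A regression on co-assayed BCL2-family reference pairs converts the normalised counts of each replicate to an apparent Kd. The assay was run in six technical replicates.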

The parent's heavy chain CDRs are GFTLNSYGIS, VIYSDGRRTFYGDSVK, GRAAGTFDS; each variant's own CDRs replace them letter for letter. Numbers give log10(Kd / nM), so 0 is 1 nM and 3 is 1 µM. Smaller is tighter. A mean of the replicates is given; it leaves out those without a signal. "nd" means that the variant was in the library but no mating with the target was seen in any replicate; the authors take this as a sign of poor binding, and no number exists. In the paper, a design with two or fewer of six values counts as a poor binder. The parent sequence was in this pool as ten entries: three were never detected, three once, and four in most replicates, with averages from 0.34 to 2.37. Empty control strains, which show no peptide, gave a signal in 1% of pairings with all heavy chain designs; the median was 2.08 and 95% of these signals were weaker than 0.84. No background was subtracted. The range of this assay differs from that of the first round, and the authors advise against merging the two.

| CDR-H1 | CDR-H2 | CDR-H3 | mean log10 Kd (nM) | replicates with signal |
|---|---|---|---|---|
| GFTLNQHGIS | VIYSCGRRTFYSDSVK | GRAAGFFDS | nd | 0/6 |
| GFTLNEYGIS | VIYSDGRRTFMADSVK | GRLAGTSDS | nd | 0/6 |
| GFPLNSYGIS | VIYSDGKRTFYGDSVK | GRTAGTFDS | 1.45 | 5/6 |
| GFTLNSYGIS | VIYSDGRRTFYQDSVK | GRAAGTFKS | nd | 0/6 |
| GFDLNSYGIS | VIYSDGRRTFYGDAVK | GRTAGTFDS | 0.20 | 6/6 |
| GFDLNEYGIS | VIYADGVRTAYADDVK | GNQAGTFDL | -0.20 | 6/6 |
| GFDLNEYGIS | VIYADGVRTAYADSVK | GGNAGTFDV | 0.65 | 6/6 |
| GFDLDEYGIS | VIYADGRRTAYADSVK | GKNAGTFDV | -0.87 | 6/6 |
| GFDLMEYGIS | VIYADGTRTGYTDKVK | GWFGDTGKT | nd | 0/6 |
| GFTLNSYGIS | VIYADGRRTFYQDSVK | GRAAGTFDS | 0.35 | 6/6 |
| GFELNDYGIS | VIYSDGRRTHYIDSVK | GRAAGTFDS | -0.68 | 6/6 |
| GFDLDEQGIS | VIYADGVRCSYADKVK | GAGSGVIDV | nd | 0/6 |
| GFVLNDYGIS | VIYSDGRRTWYGDSVK | GRAAGTFDS | 3.11 | 1/6 |
| GFDLNEYGIS | VIYADGSRTFYADSVK | GEAAGTFDI | 0.30 | 6/6 |
| GDNIDEYGIS | VIYADGHRKQYSENVK | GYNAGTLDE | nd | 0/6 |
| GFDIEEYGIS | VIYADGMRTVYSDSFK | SGRTFNIDL | nd | 0/6 |
| GFQLNEYGIS | VIYSDGRRTFYGDRVK | GRTAGTFDS | 0.93 | 3/6 |
| GFRLNSYGIS | VIYSDGRRTFYIDSVK | GQLAGTFDS | nd | 0/6 |
| GFDLNSYGIS | VIYSDGRRTFYGDSVK | GQAAGTFDE | 0.69 | 6/6 |
| GFDLNEYGIS | VIYADGKRTFYADSVK | GNQAGTFDQ | -0.42 | 6/6 |
| GFDLNEYGIS | VIYADGRRTFYADSVK | GNTAGTFTS | -0.37 | 6/6 |
| GFQLDEYGIS | VIYADGRRTFYQDSVK | GEVAGTFDN | 0.31 | 5/6 |
| GFNLNSYGIS | VIYSDGERTFYGDSDK | GRAAGTFFS | nd | 0/6 |
| GFVLNDYGIS | VIYSDGRRTQYIDSVK | GRAAGTFDS | nd | 0/6 |
| GFDLNEYGIS | VIYADGRRTFYADSVK | GVNAGTFDV | -0.73 | 6/6 |
| GFTLNSYGIS | VIYSDGRRTFYGDSVK | GKTAGTFDT | 0.75 | 6/6 |
| GFSLNEYGIS | VIYSDGRRTFYCDSVK | GRAAGTFDQ | nd | 0/6 |
| GFDLNEYGIS | VIYADGVRTAYADNVK | GQNAGTFDV | -0.38 | 6/6 |
| GFLLNEYGIS | VIYSDGRRTFYGDSVK | GQAAGTFDS | 0.76 | 6/6 |
| GFDLNSYGIS | VIYSDGRRTFYLDSVK | GREAGTFDT | -0.13 | 6/6 |
| KFKLNSYGIS | VIYSDGRRTEYGDSVK | GRAAGTFDS | 1.47 | 1/6 |
| GFELNTYGIS | VIYSDGRRTFYGDSVK | GQTAGTFDS | 0.24 | 6/6 |
| GFTLASYGIS | VIYSDGCRTFYNDSVK | GRAAGTFDS | nd | 0/6 |
| GFDLNEYGIS | VIYADGQRTAYADSVK | GHVAGTFDV | 0.41 | 6/6 |
| GFDLNEYGIS | VIYADGVRTAYADNVK | GENAGTFDV | -0.15 | 6/6 |
| GFTLNQYRIE | VIYSDSRRTFASDSVK | GRAAAFFDW | nd | 0/6 |
| GFDLDEYGIS | VIYADGSRVAILESVK | GKIAGTLDQ | -0.18 | 6/6 |
| GFDLNEYGIS | VIYADGKRTAYVDSVK | GTNAGTFDV | nd | 0/6 |
| GFSLNSYGIS | VIYSDGRRTFYSDSVK | GQAAGTFDL | 1.02 | 6/6 |
| GFDIEEMGIS | VIYADGIRQAYKNDVK | GTNVGRFSV | nd | 0/6 |
| GFNLNSYGIS | VIYSDGRRTFYVDDVK | GSAAGTFDS | 0.51 | 6/6 |
| GFTLNEYGIS | VIYSDLRRTVYTDSVK | GRFAGTFDS | nd | 0/6 |
| GFGLNEYGIS | VIYSDGRRTFYHDSVK | GSAAGTFDS | -0.39 | 6/6 |
| GFDLDEYGIS | VIYADGQRTAYADSVK | GNEAGTFDI | 0.26 | 6/6 |
| GFSLNSYGIS | VIYSDGRRTFYDDSVK | GRLAGTFDS | 0.69 | 6/6 |
| GFDIEEYGIS | VIYADGVRAAYADSVK | GENMDIMTD | nd | 0/6 |
| GFDLNEYGIS | VIYADGRRTFYADSVK | GNVAGTFTQ | -0.19 | 6/6 |
| GFDLNEYGIS | VIYADGRRTFYADSVK | GQVAGTFDM | -0.91 | 6/6 |
| GFDLNSYGIS | VIYSDGRRTFYSDSVK | GRAAGKFDS | 2.71 | 1/6 |
| GFTLNSYGIS | VIYSDGRRTEYGDSVK | GRAAGTFDC | nd | 0/6 |

The first 6 entries again:

{"CDR-H1": "GFTLNQHGIS", "CDR-H2": "VIYSCGRRTFYSDSVK", "CDR-H3": "GRAAGFFDS", "mean log10 Kd (nM)": "nd", "replicates with signal": "0/6"}
{"CDR-H1": "GFTLNEYGIS", "CDR-H2": "VIYSDGRRTFMADSVK", "CDR-H3": "GRLAGTSDS", "mean log10 Kd (nM)": "nd", "replicates with signal": "0/6"}
{"CDR-H1": "GFPLNSYGIS", "CDR-H2": "VIYSDGKRTFYGDSVK", "CDR-H3": "GRTAGTFDS", "mean log10 Kd (nM)": "1.45", "replicates with signal": "5/6"}
{"CDR-H1": "GFTLNSYGIS", "CDR-H2": "VIYSDGRRTFYQDSVK", "CDR-H3": "GRAAGTFKS", "mean log10 Kd (nM)": "nd", "replicates with signal": "0/6"}
{"CDR-H1": "GFDLNSYGIS", "CDR-H2": "VIYSDGRRTFYGDAVK", "CDR-H3": "GRTAGTFDS", "mean log10 Kd (nM)": "0.20", "replicates with signal": "6/6"}
{"CDR-H1": "GFDLNEYGIS", "CDR-H2": "VIYADGVRTAYADDVK", "CDR-H3": "GNQAGTFDL", "mean log10 Kd (nM)": "-0.20", "replicates with signal": "6/6"}